Results published in US20250129135A1, “Multi-Agonist and Use Thereof” (priority 2021, published 2025).
pEC50: −log10 of the molar value.

By UniProt entry, the sequences of proteins in these tests, tags left out. Residues count along the entry.
UniProt P47871, 26-477: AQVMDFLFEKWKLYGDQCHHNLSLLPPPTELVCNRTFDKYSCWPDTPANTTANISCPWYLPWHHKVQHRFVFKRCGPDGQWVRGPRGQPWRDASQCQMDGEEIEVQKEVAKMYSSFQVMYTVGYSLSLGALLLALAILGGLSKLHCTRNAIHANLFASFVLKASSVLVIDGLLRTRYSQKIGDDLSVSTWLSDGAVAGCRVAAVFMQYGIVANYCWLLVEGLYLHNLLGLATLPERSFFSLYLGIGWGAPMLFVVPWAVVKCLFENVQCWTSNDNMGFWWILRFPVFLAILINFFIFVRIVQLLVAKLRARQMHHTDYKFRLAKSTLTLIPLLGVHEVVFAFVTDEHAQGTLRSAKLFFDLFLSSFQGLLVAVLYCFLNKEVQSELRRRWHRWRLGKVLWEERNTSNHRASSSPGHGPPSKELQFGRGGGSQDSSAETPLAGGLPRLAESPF
UniProt P43220, 24-463: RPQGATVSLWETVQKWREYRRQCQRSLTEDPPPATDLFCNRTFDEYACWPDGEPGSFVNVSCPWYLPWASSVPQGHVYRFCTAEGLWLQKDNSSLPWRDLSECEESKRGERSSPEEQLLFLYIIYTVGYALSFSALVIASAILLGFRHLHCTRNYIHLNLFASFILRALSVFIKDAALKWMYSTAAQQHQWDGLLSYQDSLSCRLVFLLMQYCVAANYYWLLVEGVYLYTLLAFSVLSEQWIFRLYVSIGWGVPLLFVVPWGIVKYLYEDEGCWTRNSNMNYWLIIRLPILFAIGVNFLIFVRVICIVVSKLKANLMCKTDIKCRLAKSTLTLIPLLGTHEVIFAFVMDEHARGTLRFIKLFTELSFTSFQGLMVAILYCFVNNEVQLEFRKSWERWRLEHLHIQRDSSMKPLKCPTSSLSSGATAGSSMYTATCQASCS

Columns and labels:
[1] = target: T1, Human GIP R (Homo sapiens, UniProt P48546); assay: cAMP (HTRF) activity in CHO cells stably overexpressing GIP receptor; type: cell-based; details: for Human GIP R Rel. A (Relative Activity): EC50 of human GIP / EC50 of compound
T1 construct: expressed in transfected cells; host or cells: CHO
T1 sequence (P48546 22-466): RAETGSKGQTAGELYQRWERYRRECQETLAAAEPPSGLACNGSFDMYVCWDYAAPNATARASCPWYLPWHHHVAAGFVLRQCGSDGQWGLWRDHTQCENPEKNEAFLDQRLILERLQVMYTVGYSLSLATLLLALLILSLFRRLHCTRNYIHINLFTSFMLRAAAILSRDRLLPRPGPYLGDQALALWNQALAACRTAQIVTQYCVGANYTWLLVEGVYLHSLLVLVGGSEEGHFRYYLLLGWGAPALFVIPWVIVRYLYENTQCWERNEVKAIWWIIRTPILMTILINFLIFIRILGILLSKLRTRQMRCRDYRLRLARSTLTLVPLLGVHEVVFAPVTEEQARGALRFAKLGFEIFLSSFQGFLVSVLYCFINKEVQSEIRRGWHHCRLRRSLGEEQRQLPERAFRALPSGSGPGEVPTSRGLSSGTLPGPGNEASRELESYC
Experimental: (§1) By measuring the cAMP signal response levels of the aforementioned cells, the agonistic activity of individual compound towards the corresponding receptor was determined. The intracellular cAMP content was measured using reagent kit available from Cisbio Corp. based on HTRF (homogeneous time-resolved fluorescence) technology.
(§2) The cell fluid was transferred to 10 ml of HBSS for resuspension, and centrifuged at 1000 rpm for 5 minutes at room temperature.
(§3) 10 μL cell suspension was added to each well in the 384 well plate. […] Using the ECHO liquid transfer system, 100 nL of the prepared compound solution was added to the corresponding cell suspensions in the 384 well plate, rotated and shaken at 1000 rpm for 1 minute to mix evenly, and then incubated at room temperature for 60 minutes. 10 μL of detection reagent was added to each well after drug incubation was completed, and incubation was performed in the kit at room temperature for 60 minutes. […] GraphPad Prism 5 plotting software was used to create compound concentration response curves and EC50 (nM) values was calculated.

[2] = target: T2, Human GCG R (Homo sapiens, UniProt P47871); assay: cAMP (HTRF) activity in HEK-293 cells stably overexpressing human GCG receptor; type: cell-based; details: for Human GCG R Rel. A (Relative Activity): EC50 of human GCG / EC50 of compound
T2 construct: expressed in transfected cells; host or cells: HEK-293
Experimental: as §1, §2, §3

[3] = system: RIN-m5F cells; type: cell-based, rat; details: for pEC50: cAMP, at least 3 independent tests, read-out: EC50 on RIN-m5F rat pancreatic islet tumor cells; for Rel. A (Relative Activity) on RIN-m5F: relative to GLP-1(7-37)
Experimental: This experiment measured the cAMP level produced by the compound on RIN-mF cells.
Frozen […] cells were placed in a 37° C. constant temperature water bath for rapid thawing and recovery. The cell solution was transferred to 10 ml of HBSS for resuspension, and centrifuged at 1000 rpm for 5 minutes at room temperature.
(§4) 10 μL cell suspension was added to each well in the 384 well plate. […] Using the ECHO liquid transfer system, 100 nL of the prepared compound solution was added to the corresponding cell suspensions in the 384 well plate, rotated and shaken at 1000 rpm for 1 minute to mix evenly, and then incubated at room temperature for 60 minutes. 10 μL of detection reagent was added to each wells after drug incubation was completed, and incubation was performed for 60 minutes.

[4] = system: 3T3-L1 adipocytes; details: for pEC50: read-out: EC50 on mouse 3T3-L1 adipocyte, cAMP, at least 3 independent tests; for Rel. A (Relative Activity) on 3T3-L1 adipocyte: relative to GIP
Experimental: Mouse 3T3-L1 precursor adipocytes can be induced to differentiate into mature adipocytes. […] After the cells became full and contacted with each other, DMEM differentiation medium containing 20% FBS, 0.5 mM IBMX, 0.4 ug/mL dexamethasone, and 5 ug/mL insulin was used to induce differentiation of 3T3-L1 adipocyte. After 5 days of induction and cultivation, DMEM medium containing […], 4 ug/ml insulin, and 10 uM rosiglitazone was used to continue induction and cultivation for 3 days. Then, DMEM medium containing 10% FBS was used to continue cultivation for 2-3 days to induce mature 3T3-L1 adipocytes.
The cAMP level produced by the compound on 3T3-L1 adipocytes was determined in this experiment. The tested compound solution was diluted step by step according to a concentration gradient of 3 times, to obtain a total of 10 series of concentration solutions. The solutions were added to induced mature 3T3-L1 adipocytes and incubated at room temperature for 60 minutes. 10 μL detection reagent in the kit was added to each well after drug incubation, and incubated at room temperature for another 60 minutes. […] GraphPad Prism 5 plotting software was used to create compound concentration-effect curves and calculation was performed.

[5] = system: human primary liver cells; type: cell-based; details: for pEC50: cAMP, at least 3 independent tests, read-out: EC50 on human primary liver cells; for Rel. A (Relative Activity) on human primary liver cells: relative to GCG
Experimental: The cAMP levels produced by compounds on human primary liver cells were determined in this experiment. Human primary liver cells were purchased from Lonza (cell product number HUCPG).
Frozen human primary liver cells were placed in a 37° C. constant temperature water bath for rapid thawing and recovery. The cell solution was transferred to 10 ml of HBSS for resuspension, and centrifuged at 1000 rpm for 5 minutes at room temperature.
as §4, with “well” for “wells”

[6] = target: Human GLP-1R (Homo sapiens, UniProt P43220); assay: cAMP (HTRF) activity in HEK-293 cells stably overexpressing human GLP-1 receptor; type: cell-based; design: expressed in transfected cells; host or cells: HEK-293; details: for Human GLP-1R Rel. A (Relative Activity): EC50 of human GLP-1 (7-37) / EC50 of compound
Experimental: as §1, §2, §3

Row | Compound | pEC50 [1] | Human GIP R Rel. A (Relative Activity) [1] [%] | pEC50 [2] | Human GCG R Rel. A (Relative Activity) [2] [%] | pEC50 [3] | Rel. A (Relative Activity) on RIN-m5F [3] [%] | pEC50 [4] | Rel. A (Relative Activity) on 3T3-L1 adipocyte [4] [%] | pEC50 [5] | Rel. A (Relative Activity) on human primary liver cells [5] [%] | Human GLP-1R Rel. A (Relative Activity) [6] [%] | pEC50 [6]
1 | CC[C@H](C)[C@H](NC(=O)[C@H](Cc1ccccc1)NC(=O)[C@H](C)NC(=O)C(C)(C)NC(=O)[C@H](CCC(N)=O)NC(=O)[C@H](C)NC(=O)[C@H](CCCCNC(=O)COCCOCCNC(=O)COCCOCCNC(=O)CC[C@H](NC(=O)CCCCCCCCCCCCCCCCCCC(=O)O)C(=O)O)NC(=O)[C@H](CCCCN)NC(=O)[C@H](CC(=O)O)NC(=O)[C@H](CC(C)C)NC(=O)[C@H](Cc1ccccc1)NC(=O)[C@@H](NC(=O)[C@H](CO)NC(=O)[C@H](Cc1ccc(O)cc1)NC(=O)[C@H](CC(=O)O)NC(=O)[C@H](CO)NC(=O)[C@@H](NC(=O)[C@](C)(Cc1ccccc1F)NC(=O)[C@@H](NC(=O)CNC(=O)[C@H](CCC(N)=O)NC(=O)C(C)(C)NC(=O)[C@@H](N)Cc1ccc(O)cc1)[C@@H](C)O)[C@@H](C)O)[C@@H](C)CC)C(=O)N[C@@H](CCC(=O)O)C(=O)N[C@@H](Cc1ccc(O)cc1)C(=O)N[C@@H](CC(C)C)C(=O)N[C@@H](CC(C)C)C(=O)N[C@@H](CCC(=O)O)C(=O)NCC(=O)NCC(=O)N1CCC[C@H]1C(=O)N[C@@H](CO)C(=O)N[C@@H](CO)C(=O)NCC(=O)N[C@@H](C)C(=O)N1CCC[C@H]1C(=O)N1CCC[C@H]1C(=O)NC1(C(=O)N[C@@H](CO)C(N)=O)CC1 [Compound 4] | 10.24 | 317.54 | 10.15 | 80.28 | 9.56 | 375.27 | 8.27 | 70.38 | 9.02 | 406.58 | 107.32 | 
2 | CC[C@H](C)[C@H](NC(=O)[C@H](Cc1ccccc1)NC(=O)[C@H](C)NC(=O)C(C)(C)NC(=O)[C@H](CCC(N)=O)NC(=O)[C@H](C)NC(=O)[C@H](CCCCNC(=O)COCCOCCNC(=O)COCCOCCNC(=O)CC[C@H](NC(=O)CCCCCCCCCCCCCCCCCCC(=O)O)C(=O)O)NC(=O)[C@H](CCCCN)NC(=O)[C@H](CC(=O)O)NC(=O)[C@H](CC(C)C)NC(=O)[C@H](Cc1ccccc1)NC(=O)[C@@H](NC(=O)[C@H](CO)NC(=O)[C@H](Cc1ccc(O)cc1)NC(=O)[C@H](CC(=O)O)NC(=O)[C@H](CO)NC(=O)[C@@H](NC(=O)[C@](C)(Cc1ccccc1F)NC(=O)[C@@H](NC(=O)CNC(=O)[C@H](CCC(N)=O)NC(=O)C(C)(C)NC(=O)[C@@H](N)Cc1ccc(O)cc1)[C@@H](C)O)[C@@H](C)O)[C@@H](C)CC)C(=O)N[C@@H](CCC(=O)O)C(=O)N[C@@H](Cc1ccccc1)C(=O)N[C@@H](CC(C)C)C(=O)N[C@@H](CC(C)C)C(=O)N[C@@H](CCC(=O)O)C(=O)NCC(=O)NCC(=O)N1CCC[C@H]1C(=O)N[C@@H](CO)C(=O)N[C@@H](CO)C(=O)NCC(=O)N[C@@H](C)C(=O)N1CCC[C@H]1C(=O)N1CCC[C@H]1C(=O)NC1(C(=O)N[C@@H](CO)C(N)=O)CC1 [Compound 5] |  | 369.39 |  | 81.43 | 9.03 | 111.09 | 8.43 | 101.47 | 9.19 | 599.54 | 200.00 | 10.66
